Source: patent US8247572B2, “Facilitated transport of bisphosphonates by vitamin C” (Duke University, priority 2005, dated 2012)

Tests used:
[1] = system: primary human chondrocytes; experiment: Ascorbic acid transport assay in isolated primary human chondrocytes
Experimental: Ascorbic Acid Transport Assay in Isolated Primary Human Chondrocytes. AA transport was measured using a modified version of the uptake assay published by Wilson and Dixon (J. X. Wilson, S. J. Dixon, High-Affinity Sodium-Dependent Uptake of Ascorbic Acid by Rat Osteoblasts, J. Mem. Biol. 111 (1989) 83-91). Primary human chondrocytes were seeded at a density of 4.5×10^5 cells/well on a 6-well plate (or 2.25×10^5 cells/well on a 12-well plate for the kinetic experiments). Prior to the transport assay, cells were plated for 48 hours in DMEM/F12, containing 10% FCS but no AA. Cells were washed in transport buffer containing: 134 mM NaCl, 5.4 mM KCl, 1.8 mM CaCl2, 0.8 mM MgSO4, 10 mM D-glucose, 20 mM HEPES, pH 7.3 with NaOH. […] The standard AA transport assay conditions were 37° C./5% CO2 for 10 minutes. AA uptake was terminated by washing the cells four-times in ice-cold PBS. The cells were lysed with Puregene Cell Lysis Solution (Gentra Systems) and scintillation counting was performed in Uniscint BD (National Diagnostics).
In experiments with sodium free transport buffer, iso-osmotic concentrations of LiCl were substituted for NaCl. […]

[2] = system: human articular cartilage explants; settings: 21 hours

Substance: L-[^14C]-ascorbic acid [L-^14C-Asc]
- L-14C-Asc transported in the presence versus absence of sodium ([1]; 134 mM Na+, 10 minutes, p<0.001): approximately 3 fold
- passive diffusion of L-14C-Asc into human chondrocytes ([1]; in 10 minutes, 4° C. or absence of sodium): about 45 μmol L-^14C-Asc/10^6 cells
- L-14C-Asc transported at 37° C. versus 4° C. ([1]; in the presence of sodium, 10 minutes, p<0.001): 3.8 fold
- L-14C-Asc in live explants versus dead explants ([2]; p=0.05): 2 fold
- L-14C-Asc content of dead explants ([2]; dead (freeze/thaw) explants, 50 μM L-14C-Asc): 7.77+/−3.03 pmol L-^14C-Asc/mg tissue
- L-14C-Asc content of whole live explants ([2]; live explants, 50 μM L-14C-Asc): 16.56+/−4.22 pmol L-^14C-Asc/mg tissue
